The chains behind the UniProt entries cited, without tags or fusion partners. Residues count along the entry.
UniProt P27487, 39-766: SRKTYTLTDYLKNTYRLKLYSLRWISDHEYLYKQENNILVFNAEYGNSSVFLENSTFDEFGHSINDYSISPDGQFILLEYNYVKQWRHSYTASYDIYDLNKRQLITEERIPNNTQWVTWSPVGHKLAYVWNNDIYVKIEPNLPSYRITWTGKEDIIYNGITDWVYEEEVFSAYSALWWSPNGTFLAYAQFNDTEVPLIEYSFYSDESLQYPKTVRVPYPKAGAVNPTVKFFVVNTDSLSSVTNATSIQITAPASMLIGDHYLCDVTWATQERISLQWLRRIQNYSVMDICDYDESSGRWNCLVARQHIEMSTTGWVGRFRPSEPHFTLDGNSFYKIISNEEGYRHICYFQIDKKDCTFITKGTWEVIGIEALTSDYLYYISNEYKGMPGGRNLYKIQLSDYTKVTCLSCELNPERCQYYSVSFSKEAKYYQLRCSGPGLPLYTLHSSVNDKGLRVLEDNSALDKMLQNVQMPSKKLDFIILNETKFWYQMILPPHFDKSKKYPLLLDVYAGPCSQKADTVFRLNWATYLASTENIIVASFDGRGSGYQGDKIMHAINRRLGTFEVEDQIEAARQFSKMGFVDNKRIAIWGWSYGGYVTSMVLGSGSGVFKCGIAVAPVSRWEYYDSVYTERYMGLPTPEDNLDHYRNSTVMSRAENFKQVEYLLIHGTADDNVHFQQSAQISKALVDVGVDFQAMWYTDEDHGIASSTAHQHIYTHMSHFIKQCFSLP

According to patent US20070072830A1, “Methods for treating diabetes” (Point Therapeutics, Inc., priority 2004, published 2007):

Target: T1, soluble recombinant human DPP-IV (Homo sapiens, UniProt P27487)
T1 construct: immunoglobulin kappa light chain secretion signal (pSecTag2-B) (N, cleaved yes); made in house; host or cells: 293T cells, transient transfection; culture supernatant used unpurified
Assay: In vitro inhibition of recombinant soluble DPP-IV by amino boronic dipeptides
Assay type: biochemical
Conditions: assayed at 3 minutes, 78 minutes and 16 hours after addition of Ala-Pro-AFC
From the text: Production of soluble recombinant human DPP-IV. Based on information on the N-terminus of serum DPP-IV (15), a truncated DPP-IV was engineered in which a signal/leader sequence was joined to the residue in DPP-IV corresponding to the N-terminus of serum DPP-IV to allow secretion. The cDNA encoding the desired truncated human DPP-IV dimer enzyme was engineered into the mammalian secretion vector pSecTag2 (Cat# V900-20, InVitrogen Corporation). The vector, available in A, B or C versions, representing three possible phases for gene fusion, contained an immunoglobulin-kappa light chain secretion signal followed by a selection of restriction sites for gene insertion. […]
In vitro assay of enzymatic activity of recombinant soluble DPP-IV and inhibition by amino boronic dipeptides. […] The reaction mixture was incubated at room temperature, and production of the fluorescent AFC product was measured in a fluorometer (excitation, 400 nm; emission 505 nm), either by continuous monitoring or after termination with a one to one-tenth volume of 1-M sodium acetate, pH 4.5. Fluorometric reading were made with a […] Spectra Max GeminiXS capable of reading 96-well microtiter plates. […]

SMILES: CC(C)[C@H](N)C(=O)N1CCC[C@H]1B(O)O [Val-boroPro]
- Persistence / reversibility of DPP-IV inhibition: sustained DPP-IV inhibition
